This test relates to Cysteinyl leukotriene receptor 1 (Cavia porcellus). In words: Dissociation constant (Kb) against LTD4.

The record followed here is ChEMBL document CHEMBL1124803, “Evolution of a series of peptidoleukotriene antagonists: synthesis and structure/activity relationships of 1,3,5-substituted indoles and indazoles” (J Med Chem, 1990).

`COc1cc(C(=O)O)ccc1Cn1ncc2ccc(NC(=O)OC3CCCC3)cc21` came in with a pKB of 7.5.

Take `COc1cc(C(=O)O)ccc1Cn1ncc2ccc(NC(=O)CC3CCCC3)cc21`: the pKB amounted to 7.79.

The compound `COc1cc(C(=O)NS(=O)(=O)c2ccccc2)ccc1Cc1cn(C)c2ccc(NC(=O)NC3CCCC3)cc12` displayed a pKB of 9.83.

As to `O=C(O)CCS[C@H](c1ccccc1CCCCCCCCc1ccccc1)[C@@H](O)C(=O)O`, the negative logarithm of the KB (pKB) was more than 8.9.
